Tests used:
Details in all cases: equilibrium dissociation constant, class symbols
MLKL (full length) = biological target: T1, MLKL (full length) (Homo sapiens, UniProt Q8NB16); assay: KINOMEscan binding assay, MLKL
T1 construct: purchased DiscoverX (KINOMEscan service); host or cells: E. coli BL21-derived (T7 phage) or HEK293
T1 sequence (Q8NB16 1-471): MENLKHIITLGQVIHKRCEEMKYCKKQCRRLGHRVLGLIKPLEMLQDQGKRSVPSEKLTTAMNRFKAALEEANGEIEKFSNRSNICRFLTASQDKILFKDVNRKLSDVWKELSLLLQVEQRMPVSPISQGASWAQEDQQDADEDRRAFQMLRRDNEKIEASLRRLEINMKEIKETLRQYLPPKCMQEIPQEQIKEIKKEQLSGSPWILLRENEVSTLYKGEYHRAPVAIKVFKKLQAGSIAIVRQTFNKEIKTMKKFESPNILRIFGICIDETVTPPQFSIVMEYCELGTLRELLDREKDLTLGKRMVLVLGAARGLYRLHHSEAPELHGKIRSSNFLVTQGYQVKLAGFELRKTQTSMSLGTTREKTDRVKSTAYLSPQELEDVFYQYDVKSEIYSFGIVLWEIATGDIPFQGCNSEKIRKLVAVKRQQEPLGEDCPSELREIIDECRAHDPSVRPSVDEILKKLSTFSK

Amino acid sequences for entries named in this document (tags omitted). A change or cut given only in a name is not applied to a line headed by its entry.
UniProt Q9Y572: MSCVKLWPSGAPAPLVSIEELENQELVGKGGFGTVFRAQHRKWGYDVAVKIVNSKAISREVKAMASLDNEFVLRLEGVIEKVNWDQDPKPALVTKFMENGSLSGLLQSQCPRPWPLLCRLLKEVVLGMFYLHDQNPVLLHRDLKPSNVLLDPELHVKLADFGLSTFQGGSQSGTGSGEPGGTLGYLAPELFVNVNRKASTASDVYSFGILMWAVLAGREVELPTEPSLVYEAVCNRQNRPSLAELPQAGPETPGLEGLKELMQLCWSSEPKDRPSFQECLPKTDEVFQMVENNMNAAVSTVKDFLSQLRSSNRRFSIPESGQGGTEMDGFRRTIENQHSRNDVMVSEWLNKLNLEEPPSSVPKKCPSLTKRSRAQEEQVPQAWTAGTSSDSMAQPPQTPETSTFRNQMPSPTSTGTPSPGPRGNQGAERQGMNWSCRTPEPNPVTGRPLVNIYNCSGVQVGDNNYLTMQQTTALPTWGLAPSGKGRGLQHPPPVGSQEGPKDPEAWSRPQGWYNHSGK

RIP1 = biological target: T2, RIP1 (Homo sapiens, UniProt Q13546); assay: KINOMEscan binding assay, RIP1
T2 construct: purchased DiscoverX (KINOMEscan service); host or cells: E. coli BL21-derived (T7 phage) or HEK293
T2 sequence (Q13546 1-671): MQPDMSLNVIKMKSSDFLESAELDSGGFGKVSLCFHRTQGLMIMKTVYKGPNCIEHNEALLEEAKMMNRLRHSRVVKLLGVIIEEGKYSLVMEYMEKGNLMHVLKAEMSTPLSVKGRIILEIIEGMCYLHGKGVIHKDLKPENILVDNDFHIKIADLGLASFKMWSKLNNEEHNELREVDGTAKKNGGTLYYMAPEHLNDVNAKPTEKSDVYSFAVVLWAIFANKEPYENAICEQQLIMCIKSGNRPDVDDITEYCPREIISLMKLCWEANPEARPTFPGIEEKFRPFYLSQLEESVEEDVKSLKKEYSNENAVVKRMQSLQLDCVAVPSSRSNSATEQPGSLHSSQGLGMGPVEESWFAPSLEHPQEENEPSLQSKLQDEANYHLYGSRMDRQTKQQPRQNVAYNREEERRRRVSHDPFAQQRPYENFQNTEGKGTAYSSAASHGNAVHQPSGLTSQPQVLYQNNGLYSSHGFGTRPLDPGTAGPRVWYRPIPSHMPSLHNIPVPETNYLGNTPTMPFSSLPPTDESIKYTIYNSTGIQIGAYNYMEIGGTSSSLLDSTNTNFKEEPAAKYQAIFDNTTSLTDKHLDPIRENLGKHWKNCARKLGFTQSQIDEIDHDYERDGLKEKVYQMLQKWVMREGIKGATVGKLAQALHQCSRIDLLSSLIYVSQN

RIP3 = biological target: T3, RIP3 (Homo sapiens, UniProt Q9Y572); assay: KINOMEscan binding assay, RIP3
T3 construct: purchased DiscoverX (KINOMEscan service); host or cells: E. coli BL21-derived (T7 phage) or HEK293

Row | Kd (MLKL (full length)) | Kd (RIP1) | Kd (RIP3) | Structure (SMILES)
1 | < 0.01 µM | > 30 µM | > 30 µM | C[C@H](Oc1cc(-c2n[nH]c(Nc3ccccn3)c2C(N)=O)ccc1NS(=O)(=O)CC(F)(F)F)c1ccc(F)cc1 [Compound 154, (S)-3-(3-(1-(4-fluorophenyl)ethoxy)-4-((2,2,2-trifluoroethyl)sulfonamido)phenyl)-5-(pyridine-2-ylamino)-1H-pyrazole-4-carboxamide]
2 | < 0.01 µM | > 30 µM | 1 to 30 µM | CCS(=O)(=O)Nc1ccc(-c2n[nH]c(Nc3ccccn3)c2C(N)=O)cc1 [Compound 131, 3-(4-(ethylsulfonamido)phenyl)-5-(pyridin-2-ylamino)-1H-pyrazole-4-carboxamide]
3 | 1 to 30 µM | > 30 µM | 1 to 30 µM | NC(=O)c1c(-c2ccc(NS(=O)(=O)CC3CCC3)cc2)n[nH]c1Nc1ccccn1 [Compound 134]
4 | 0.01 to 1 µM | > 30 µM | 1 to 30 µM | CCS(=O)(=O)Nc1ccc(-c2n[nH]c(Nc3cccc(C)n3)c2C(N)=O)cc1 [Compound 94, 3-(4-(ethylsulfonamido)phenyl)-5-((6-methylpyridin-2-yl)amino)-1H-pyrazole-4-carboxamide]
5 | < 0.01 µM | > 30 µM | > 30 µM | CCS(=O)(=O)Nc1ccc(-c2n[nH]c(Nc3cnccn3)c2C(N)=O)cc1OCc1ccc(F)cc1 [Compound 62, 3-(4-(ethylsulfonamido)-3-((4-fluorobenzyl)oxy)phenyl) 5-(pyrazin-2-ylamino)-1H pyrazole-4-carboxamide]
6 | < 0.01 µM | > 30 µM | > 30 µM | CCS(=O)(=O)Nc1ccc(-c2n[nH]c(Nc3cccc(C(F)(F)F)n3)c2C(N)=O)cc1 [Compound 126, 3-(4-(ethylsulfonamido)phenyl)-5-((6-(trifluoromethyl)pyridin-2-yl)amino)-1H-pyrazole-4-carboxamide]

The remaining lines, values behind:

Row | Structure (SMILES) | Kd (MLKL (full length)) | Kd (RIP1) | Kd (RIP3)
7 | C[C@H](Oc1cc(-c2n[nH]c(Nc3ncn(C)n3)c2C(N)=O)ccc1NS(=O)(=O)C(F)F)c1ccc(F)cc1 [Compound 283, (S)-3-(4-((difluoromethyl)sulfonamido)-3-(1-(4-fluorophenyl)ethoxy)phenyl)-5-((1-methyl-1H-1,2,4-triazol-3-yl)amino)-1H-pyrazole-4-carboxamide] | < 0.01 µM | > 30 µM | > 30 µM
8 | Cc1cc(Nc2[nH]nc(-c3ccc(NS(=O)(=O)CC(F)(F)F)c(O[C@@H](C)c4ccc(F)cc4)c3)c2C(N)=O)no1 [Compound 311, (S)-3-(3-(1-(4-fluorophenyl)ethoxy)-4-((2,2,2-trifluoroethyl)sulfonamido)phenyl)-5-((5-methylisoxazol-3-yl)amino)-1H-pyrazole-4-carboxamide] | < 0.01 µM | > 30 µM | > 30 µM
9 | CCS(=O)(=O)Nc1ccc(-c2n[nH]c(Nc3cnccn3)c2C(N)=O)cc1N(C)Cc1ccc(F)cc1 [Compound 13, 3-(4-(ethylsulfonamido)-3-((4-fluorobenzyl)(methyl)amino)phenyl)-5-(pyrazin-2-ylamino)-1H-pyrazole-4-carboxamide] | 0.01 to 1 µM | > 30 µM | > 30 µM
10 | COc1ccc(Nc2[nH]nc(-c3ccc(NS(=O)(=O)CC(F)(F)F)c(OCc4ccc(F)cc4)c3)c2C(N)=O)cn1 [Compound 159, 3-(3-((4-fluorobenzyl)oxy)-4-((2,2,2-trifluoroethyl)sulfonamido)phenyl)-5-((6-methoxypyridin-3-yl)amino)-1H-pyrazole-4-carboxamide] | < 0.01 µM | > 30 µM | > 30 µM
11 | CCS(=O)(=O)Nc1ccc(-c2n[nH]c(Nc3cnccn3)c2C(N)=O)cc1OCc1ccc(Cl)cn1 [Compound 242, 3-{3-[(5-chloropyridin-2-yl)methoxy]-4-ethanesulfonamidophenyl}-5-[(pyrazin-2-yl)amino]-1H-pyrazole-4-carboxamide] | < 0.01 µM | > 30 µM | > 30 µM
12 | C[C@H](Oc1cc(-c2n[nH]c(Nc3cnccn3)c2C(N)=O)ccc1NS(=O)(=O)C(F)F)c1ncco1 (single isomer, unassigned) [Compound 279] | < 0.01 µM | > 30 µM | > 30 µM
